The chains behind the UniProt entries cited, without tags or fusion partners. Residues count along the entry.
UniProt B7J952, 1-118: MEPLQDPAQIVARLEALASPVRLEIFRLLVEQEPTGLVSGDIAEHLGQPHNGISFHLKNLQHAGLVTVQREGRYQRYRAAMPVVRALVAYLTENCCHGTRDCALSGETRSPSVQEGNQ
UniProt B7J952, 1-118 C102S: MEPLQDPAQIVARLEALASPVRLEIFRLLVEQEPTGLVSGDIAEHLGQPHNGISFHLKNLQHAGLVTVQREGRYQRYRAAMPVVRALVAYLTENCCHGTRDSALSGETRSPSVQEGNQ

According to US10640802B2 (priority 2012, dated 2020):

Key:
[1] = system: C102S mutant biosensor (E. coli strain AW3110); assay: In vivo biosensor assay, gfp expression, C102S AfarsR; type: cell-based; conditions: for biosensor response (gfp derepression): 0.05% arabinose, C102S mutant repressor; for EC50: read-out: apparent half maximal concentration for induction, mutant biosensor, FIG. 13C
[2] = system: Acidithiobacillus ferrooxidans AfArsR variant C102S (Cys102 eliminated by mutation; pBADarsR / parsO-gfp biosensor in E. coli AW3110)
[3] = system: AfarsR-gfp biosensor (E. coli strain AW3110 bearing pBADarsR and pACYC184-parsO-gfp); assay: In vivo biosensor assay, gfp expression, wild type AfarsR; type: cell-based; conditions: for biosensor response (gfp derepression): 0.05% arabinose, wild type repressor; for induction of gfp expression: subtoxic concentrations
wild type AfArsR = assay: Fluorescence anisotropy: dissociation of wild type AfArsR from DNA by arsenicals; type: binding, Acidithiobacillus ferrooxidans
[4] = system: E. coli AW3110 biosensor cells; assay: Toxicity of arsenicals to biosensor cells; conditions: FIG. 15 (M9 medium, overnight) / FIG. 16C (disk test)
[5] = target: Acidithiobacillus ferrooxidans AfArsR repressor, wild type (Acidithiobacillus ferrooxidans, UniProt B7J952); conditions: read-out: half-maximal concentration decreasing anisotropy of AfArsR-DNA complex; fluorescein-labeled arsO DNA, pH7.5, anaerobic (FIGS. 11A, 11B)
[6] = target: Acidithiobacillus ferrooxidans AfArsR variant C102S (Cys102 to serine) (Acidithiobacillus ferrooxidans, UniProt B7J952, C102S)
[7] = system: Acidithiobacillus ferrooxidans AfArsR, wild type (pBADarsR / pACYC184-parsO-gfp biosensor in E. coli AW3110)
[8] = system: Acidithiobacillus ferrooxidans AfArsR variant C102S (biosensor co-cultured with Burkholderia sp. MR1); assay: Biosensor co-cultured with Burkholderia sp. MR1: gfp response to arsenicals; type: cell-based; conditions: M9 medium, 2 μM arsenical, 8 hours
[9] = system: arsenic hypersensitive E. coli strain AW3110
AfArsR C102S mutant = assay: Fluorescence anisotropy: dissociation of C102S AfArsR from DNA by arsenicals; type: binding, Acidithiobacillus ferrooxidans; conditions: for response of C102S AfArsR (concentration range): slightly higher than the wild type
[10] = system: C102S biosensor co-cultured with Burkholderia sp. MR1; assay: Biosensor co-cultured with Burkholderia sp. MR1 (in situ reduction); type: cell-based, E. coli / Burkholderia sp. MR1; conditions: 2 μM, M9 medium, 8 hours, 0.05% arabinose

| Compound | biosensor response (gfp derepression) [1] | induction / derepression of gfp expression [2] | biosensor response (gfp derepression) [3] | induction of gfp expression ([3]; 0.2% arabinose) | EC50 [5] [nM] | EC50 [1] [nM] | response of C102S AfArsR (concentration range) (AfArsR C102S mutant) | also measured |
| --- | --- | --- | --- | --- | --- | --- | --- | --- |
| C[As](=O)(O)O | unresponsive | nor detect | unresponsive | not inducers | – | – | – | effect on anisotropy of the AfArsR-DNA complex (wild type AfArsR; wild type AfArsR): no effect |
| O=[As]c1ccccc1 (stereo not shown) | – | – | – | – | 300 | – | – | toxicity to biosensor cells [4]: toxic |
| O=[N+]([O-])c1cc([As](O)O)ccc1O | – | proportional to the concentration of the inducer | – | – | 300 | – | – | response (anisotropy), concentration range ([6]; FIG. 11C): sub-micromolar range; response to MAs(III), Rox(III) and PhAs(III) relative to wild type ([6]; FIG. 11C compared with FIG. 11A): slightly higher than the wild type; EC50 ([2]; read-out: apparent half maximal concentration for induction, FIG. 13C): 250 nM; induction / derepression of gfp expression [7]: proportional to the concentration of the inducer; response of co-cultured biosensor [8]: did respond |
| methylarsenite | proportional to the concentration of the inducer | – | proportional to the concentration of the inducer | induced gfp expression | – | 3000 | sub-micromolar range | concentration in excess of which toxic ([9]; strain AW3110): 10^−5 M; fluorescence of Cys102-lacking biosensor ([1]; FIG. 10): high levels of fluorescence; binding by purified AfArsR C102S mutant (AfArsR C102S mutant; compared with wild type AfArsR, FIGS. 11C and 11D): same binding affinity; range of nearly linear response ([3]; 0.5% arabinose): 2 to 8 µM; EC50 ([3]; read-out: apparent half maximal concentration required for induction, 0.2% arabinose, FIG. 6B): 3000 nM |
| trivalent roxarsone | proportional to the concentration of the inducer | – | proportional to the concentration of the inducer | – | – | 250 | sub-micromolar range | toxicity, disk test ([9]; LB plate, overnight, FIG. 16C): toxic; EC50 (wild type AfArsR; read-out: half-maximal concentration for decrease of anisotropy, wild type AfArsR-DNA complex, FIG. 11A/B): 300 nM; response of biosensor co-cultured with Burkholderia [10]: did respond |
